Literature values, collected in patent publication US20240269228A1 (priority 2021, published 2024).

Protein sequences, listed by entry. Tags and fused reporters are not part of them. Residues count along the entry.
UniProt Q9GZZ6, 25-450 limits assumed: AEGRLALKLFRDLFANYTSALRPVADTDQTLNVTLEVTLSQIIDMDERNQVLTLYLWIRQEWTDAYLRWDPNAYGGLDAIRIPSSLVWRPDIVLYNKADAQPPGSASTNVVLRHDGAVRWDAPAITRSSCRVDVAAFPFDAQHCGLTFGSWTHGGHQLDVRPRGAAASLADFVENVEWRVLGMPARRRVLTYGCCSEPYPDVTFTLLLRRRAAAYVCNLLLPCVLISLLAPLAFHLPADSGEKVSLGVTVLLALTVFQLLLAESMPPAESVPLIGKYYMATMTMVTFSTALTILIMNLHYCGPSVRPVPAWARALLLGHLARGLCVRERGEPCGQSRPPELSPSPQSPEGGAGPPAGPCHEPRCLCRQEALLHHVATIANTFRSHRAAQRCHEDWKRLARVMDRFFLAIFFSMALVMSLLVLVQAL
UniProt Q9UGM1, 26-479 limits assumed: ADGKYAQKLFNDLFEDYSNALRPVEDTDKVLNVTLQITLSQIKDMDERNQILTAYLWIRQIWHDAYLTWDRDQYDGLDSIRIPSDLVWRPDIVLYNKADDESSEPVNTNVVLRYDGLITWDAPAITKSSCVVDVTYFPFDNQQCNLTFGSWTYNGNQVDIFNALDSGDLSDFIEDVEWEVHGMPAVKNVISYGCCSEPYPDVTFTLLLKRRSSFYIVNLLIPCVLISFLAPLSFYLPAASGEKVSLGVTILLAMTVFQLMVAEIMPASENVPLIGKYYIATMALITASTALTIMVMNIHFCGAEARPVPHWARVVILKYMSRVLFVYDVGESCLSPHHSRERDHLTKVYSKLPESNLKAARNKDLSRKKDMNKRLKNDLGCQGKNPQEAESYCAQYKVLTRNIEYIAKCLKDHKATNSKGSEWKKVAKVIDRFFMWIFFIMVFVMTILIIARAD

Target: human α9α10 nAChR (Homo sapiens, UniProt Q9GZZ6+Q9UGM1)
Settings: cited from earlier work

G C C S D P R C R Y R C R [RgIA]
decrease in potency on human α9α10 nAChRs: 300 fold
